Data published in patent publication US7132417B2 (dated 2006).

By UniProt entry, the sequences of proteins in these tests, tags left out.
UniProt P03372, whole entry: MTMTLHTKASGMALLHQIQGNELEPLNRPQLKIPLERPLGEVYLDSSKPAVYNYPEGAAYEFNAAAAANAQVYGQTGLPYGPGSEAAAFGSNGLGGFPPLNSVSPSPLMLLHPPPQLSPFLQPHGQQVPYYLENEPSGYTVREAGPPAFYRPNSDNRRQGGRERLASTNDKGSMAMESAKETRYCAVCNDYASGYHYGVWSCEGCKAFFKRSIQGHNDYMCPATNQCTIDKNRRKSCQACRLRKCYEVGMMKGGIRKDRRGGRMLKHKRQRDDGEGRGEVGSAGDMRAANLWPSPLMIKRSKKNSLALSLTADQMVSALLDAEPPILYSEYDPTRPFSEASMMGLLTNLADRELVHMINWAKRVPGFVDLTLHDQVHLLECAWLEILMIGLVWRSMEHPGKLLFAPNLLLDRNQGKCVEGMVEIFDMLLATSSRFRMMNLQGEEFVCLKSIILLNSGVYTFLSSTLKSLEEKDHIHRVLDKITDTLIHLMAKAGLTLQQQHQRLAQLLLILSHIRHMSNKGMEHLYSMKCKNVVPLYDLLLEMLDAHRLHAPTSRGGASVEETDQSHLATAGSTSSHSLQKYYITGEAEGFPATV

Target: estrogen receptor (Homo sapiens, UniProt P03372)
Assay: In vitro estrogen receptor binding assay ([3H]-17β-estradiol competition)

How did the IC50 turn out when Cc1c(-c2cccc(O)c2)n(Cc2ccc(OCCN3CCCCCC3)cc2)c2ccc(O)cc12 [compound 128, 1-[4-(2-Azepan-1-yl-ethoxy)-benzyl]-2-(3-hydroxy-phenyl)-3-methyl-1H-indole-5-ol] was run?
Its IC50 is 9 nM.
